This assay concerns the target AmpC β-lactamase from E. coli (Escherichia coli, UniProt P00811). Description: biochemical.

Protein sequences, listed by entry. Tags and fused reporters are not part of them. Residues count along the entry.
UniProt P00811, 20-377: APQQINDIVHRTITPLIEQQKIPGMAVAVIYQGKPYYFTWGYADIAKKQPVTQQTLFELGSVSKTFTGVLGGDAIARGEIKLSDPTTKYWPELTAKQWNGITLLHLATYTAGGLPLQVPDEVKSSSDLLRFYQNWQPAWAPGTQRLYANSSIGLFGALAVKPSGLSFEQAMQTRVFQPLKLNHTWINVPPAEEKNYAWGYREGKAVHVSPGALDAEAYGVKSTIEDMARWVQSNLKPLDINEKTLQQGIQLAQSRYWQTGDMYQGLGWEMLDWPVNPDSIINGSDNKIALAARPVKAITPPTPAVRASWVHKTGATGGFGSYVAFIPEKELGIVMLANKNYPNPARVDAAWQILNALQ

One may read the Ki as the equilibrium dissociation constant of an inhibitor or competing ligand from its target. Higher therefore signals weaker binding.

The molecule `OB(O)c1cccs1` [TH2B, thiophene-2-boronic acid] registered a Ki of 3.3 µM.

Source of the values: patent publication US6417174B1, “Inhibitors of β-lactamases and uses therefor” (Northwestern University, priority 1997, dated 2002).
